Assay results taken from PubChem BioAssay (NCI).
This is a selection; strong and weak results do not stand in their true shares.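 Step 1: grow cells in 96-well plates. Step 2: add test compound at a single concentration. Step 3: incubate 48 h. Step 4: record percent growth.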 Active and inactive are the calls of the source. The calls were made as follows: active = growth percent below 10; inactive = the rest.

Legend:
Test in all cases: NCI-60 one-dose screen, 48 h (100 = growth as untreated, 0 = no growth, -100 = all killed)
Details in all cases: 10 µM unless noted
[1] = system: NCI/ADR-RES ovarian
[2] = system: MDA-MB-435 melanoma
[3] = system: SW-620 colon
[4] = system: MCF7 breast
[5] = system: HCT-116 colon
[6] = system: HCC-2998 colon
[7] = system: KM12 colon
[8] = system: T-47D breast
[9] = system: BT-549 breast

Measured: growth

C=NNc1ccc([N+](=O)[O-])cc1[N+](=O)[O-]
inactive: [1] 90.5% | [2] 89.9% | [3] 97.1% | [4] 83% | [5] 90.6% | [6] 100% | [7] 68.9%

O=C(CBr)c1ccc([N+](=O)[O-])cc1
inactive: [1] 110% | [8] 101% | [2] 103% | [3] 105% | [4] 84.8% | [5] 100% | [6] 107% | [7] 106%

Cc1ccc(Sc2ccc([N+](=O)[O-])cc2[N+](=O)[O-])c([N+](=O)[O-])c1
active: [1] 4.11% | [9] -23.6% | [2] 1.07% | [5] -13.9% | [6] -12.5%
inactive: [8] 58.7% | [4] 16.1% | [7] 13.9%

CCOC(=O)N1CCN(CCCl)CC1
inactive: [1] 103% | [8] 84.6% | [2] 103% | [3] 111% | [4] 90.9% | [5] 103% | [6] 106% | [7] 101%

CSc1ccc(Nc2c([N+](=O)[O-])cc([N+](=O)[O-])cc2[N+](=O)[O-])cc1
inactive: [1] 41.3% | [9] 80.9% | [2] 87.8% | [3] 44.7% | [4] 32.7% | [5] 51% | [6] 78.9% | [7] 61.5%

O=[N+]([O-])c1ccc(Oc2cccc(Oc3ccc([N+](=O)[O-])cc3[N+](=O)[O-])c2)c([N+](=O)[O-])c1
inactive: [1] 77.5% | [2] 72.5% | [3] 53% | [4] 74.7% | [5] 62.9% | [6] 112% | [7] 88.2%

O=[As](O)(c1cccs1)c1cccs1
inactive: [1] 98.6% | [8] 90.8% | [9] 74% | [2] 102% | [3] 104% | [4] 94.9% | [5] 93.2% | [7] 115%

CCN(CCI)Cc1cccc2ccccc12
inactive: [1] 98.7% | [8] 95.9% | [2] 102% | [3] 98.9% | [4] 92.7% | [5] 115% | [6] 107% | [7] 100%

Cc1c([N+](=O)[O-])cc(C(=O)c2cc([N+](=O)[O-])cc([N+](=O)[O-])c2)cc1[N+](=O)[O-]
inactive: [1] 91.5% | [8] 113% | [9] 83.2% | [2] 104% | [3] 111% | [4] 82.7% | [5] 92% | [7] 110%

CC(=O)NC(C)C(=O)N(CC(C)Cl)CC(C)Cl (stereo not given)
inactive: [8] 89% | [9] 107% | [2] 101% | [3] 103% | [4] 92.5% | [5] 99.5% | [6] 107% | [7] 110%

CC(/C=N/N=C(\N)N[N+](=O)[O-])=N\N=C(/N)N[N+](=O)[O-]
inactive: [8] 99.7% | [9] 107% | [2] 110% | [3] 103% | [4] 94.1% | [5] 103% | [6] 100% | [7] 110%

O=P(Nc1ncccn1)(N1CC1)N1CC1
inactive: [1] 95.8% | [8] 101% | [2] 91.9% | [3] 99.7% | [4] 95.5% | [5] 97.3% | [6] 99.9% | [7] 110%

O=P1(Nc2ncccn2)OC(CCl)=NC1c1ccc(C2N=C(CCl)OP2(=O)Nc2ncccn2)cc1 (stereo not given)
inactive: [4] 95.5%
